# Earlier results, collected in patent US12631641B2, “Method of identifying treatment responsive non-small cell lung cancer using anaplastic lymphoma kinase (ALK) as a marker” (Ventana Medical Systems, Inc., priority 2012, dated 2026).
# Tested on: ALK-positive locally advanced or metastatic NSCLC
# Conditions: for overall response rate: ALK-positive locally advanced or metastatic NSCLC patients
compound,measurement,setting,value
"C[C@@H](Oc1cc(-c2cnn(C3CCNCC3)c2)cnc1N)c1c(Cl)ccc(F)c1Cl [crizotinib, Crizotinib]",overall response rate,"first of two clinical trials, N=136, 95% CI: 42%, 59%",50%
same,overall response rate,"second of two clinical trials, N=119, 95% CI: 52%, 70%",61%
same,overall response rates,subjects with ALK-positive NSCLC treated with an ALK inhibitor (Kwak et al. 2010; Shaw et al. 2011),greater than 50%

# Where two headings read alike, the source gives them in different places.
